{"source": "BindingDB's records for doi:10.1016/S0893-133X(02)00346-9", "about": "(Eli Lilly, 2002)", "key": {"[1]": {"molecular_target": "Sodium-dependent noradrenaline transporter (Homo sapiens, UniProt P23975)"}, "[2]": {"molecular_target": "Gamma-aminobutyric acid (GABA) B receptor 1 (Rattus norvegicus, UniProt Q6MFX8)"}, "[3]": {"molecular_target": "5-hydroxytryptamine receptor 1A (Homo sapiens, UniProt P08908)"}, "[4]": {"molecular_target": "Voltage-dependent N-type calcium channel subunit alpha-1B (Rattus norvegicus, UniProt Q02294)"}, "[5]": {"molecular_target": "Alpha-2B adrenergic receptor (Mus musculus, UniProt P30545)"}, "[6]": {"molecular_target": "Kappa-type opioid receptor (Cavia porcellus, UniProt P41144)"}, "Adenylate cyclase type 3": {"molecular_target": "T1, Adenylate cyclase type 3 (Rattus norvegicus, UniProt P21932)", "T1 sequence (P21932 whole entry)": "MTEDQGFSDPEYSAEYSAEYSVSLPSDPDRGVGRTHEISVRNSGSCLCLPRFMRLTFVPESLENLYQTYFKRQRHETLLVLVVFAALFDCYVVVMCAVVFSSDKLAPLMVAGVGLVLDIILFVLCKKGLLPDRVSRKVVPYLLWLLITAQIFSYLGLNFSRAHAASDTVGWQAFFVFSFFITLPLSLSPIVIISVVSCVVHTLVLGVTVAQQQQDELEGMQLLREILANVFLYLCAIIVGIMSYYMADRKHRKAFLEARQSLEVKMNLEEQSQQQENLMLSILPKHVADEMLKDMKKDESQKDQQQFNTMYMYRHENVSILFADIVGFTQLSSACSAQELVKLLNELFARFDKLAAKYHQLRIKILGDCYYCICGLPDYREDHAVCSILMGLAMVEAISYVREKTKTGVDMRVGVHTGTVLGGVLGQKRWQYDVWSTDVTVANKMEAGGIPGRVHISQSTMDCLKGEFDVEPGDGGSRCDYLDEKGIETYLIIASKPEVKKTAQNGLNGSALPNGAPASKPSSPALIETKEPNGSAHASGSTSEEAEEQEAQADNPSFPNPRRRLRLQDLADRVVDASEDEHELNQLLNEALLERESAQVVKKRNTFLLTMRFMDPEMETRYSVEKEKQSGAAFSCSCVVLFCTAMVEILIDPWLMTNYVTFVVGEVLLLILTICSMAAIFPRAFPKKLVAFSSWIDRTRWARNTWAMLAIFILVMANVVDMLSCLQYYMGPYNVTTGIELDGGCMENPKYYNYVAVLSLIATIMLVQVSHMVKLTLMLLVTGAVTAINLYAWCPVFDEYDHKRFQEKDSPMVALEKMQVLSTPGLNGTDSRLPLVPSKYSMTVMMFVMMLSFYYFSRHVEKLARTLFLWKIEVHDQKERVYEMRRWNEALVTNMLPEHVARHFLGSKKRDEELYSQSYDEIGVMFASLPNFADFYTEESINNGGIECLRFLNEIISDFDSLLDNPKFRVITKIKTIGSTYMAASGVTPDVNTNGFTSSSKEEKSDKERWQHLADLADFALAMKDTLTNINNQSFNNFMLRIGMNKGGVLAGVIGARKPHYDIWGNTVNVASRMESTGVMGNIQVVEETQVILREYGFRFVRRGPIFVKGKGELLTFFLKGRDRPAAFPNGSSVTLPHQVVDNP"}, "[7]": {"molecular_target": "5-hydroxytryptamine receptor 7 (Homo sapiens, UniProt P34969)"}, "[8]": {"molecular_target": "Acetylcholine receptor subunit alpha (Homo sapiens, UniProt P02708)"}, "Olfactory receptor 145": {"molecular_target": "T2, Olfactory receptor 145 (Mus musculus, UniProt Q60882)", "T2 sequence (Q60882 whole entry)": "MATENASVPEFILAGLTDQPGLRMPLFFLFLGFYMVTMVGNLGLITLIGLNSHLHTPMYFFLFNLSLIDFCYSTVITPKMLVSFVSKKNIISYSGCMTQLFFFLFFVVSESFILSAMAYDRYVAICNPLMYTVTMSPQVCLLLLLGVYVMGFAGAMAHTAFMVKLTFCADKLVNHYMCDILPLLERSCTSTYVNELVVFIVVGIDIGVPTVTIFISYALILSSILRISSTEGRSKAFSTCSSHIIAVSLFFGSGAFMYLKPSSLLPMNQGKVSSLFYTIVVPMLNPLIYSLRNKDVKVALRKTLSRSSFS"}, "[9]": {"molecular_target": "5-hydroxytryptamine receptor 1D (Homo sapiens, UniProt P28221)"}, "[10]": {"molecular_target": "Alpha-2A adrenergic receptor (Homo sapiens, UniProt P08913)"}, "[11]": {"molecular_target": "Melatonin receptor type 1A (Homo sapiens, UniProt P48039)"}, "[12]": {"molecular_target": "Nitric oxide synthase, brain (Rattus norvegicus, UniProt P29476)"}, "[13]": {"molecular_target": "Glutamate receptor ionotropic, kainate 1 (Rattus norvegicus, UniProt P22756)"}}, "note": "Counter-ions that a name gives are not always drawn.", "data": [{"smiles": "CC(NC(C)(C)C)C(=O)c1cccc(Cl)c1", "note": "(stereo not given) [BUPROPION HYDROCHLORIDE]", "values": [{"measurement": "Ki", "setting": "[1]", "value": "> 10", "unit": "µM"}]}, {"smiles": "CNCCC(Oc1ccccc1C)c1ccccc1", "note": "(stereo not given) [Methyl-(3-phenyl-3-o-tolyloxy-propyl)-amine(tomoxetine)]", "values": [{"measurement": "Ki", "setting": "[2]", "value": 1, "unit": "µM"}, {"measurement": "Ki", "setting": "[3]", "value": 1, "unit": "µM"}, {"measurement": "Ki", "setting": "[4]", "value": 1, "unit": "µM"}, {"measurement": "Ki", "setting": "[5]", "value": 1, "unit": "µM"}, {"measurement": "Ki", "setting": "[6]", "value": 1, "unit": "µM"}, {"measurement": "Ki", "setting": "Adenylate cyclase type 3", "value": 1, "unit": "µM"}, {"measurement": "Ki", "setting": "[7]", "value": 1, "unit": "µM"}, {"measurement": "Ki", "setting": "[8]", "value": 1, "unit": "µM"}, {"measurement": "Ki", "setting": "Olfactory receptor 145", "value": 1, "unit": "µM"}, {"measurement": "Ki", "setting": "[9]", "value": 1, "unit": "µM"}, {"measurement": "Ki", "setting": "[10]", "value": 1, "unit": "µM"}, {"measurement": "Ki", "setting": "[11]", "value": 1, "unit": "µM"}, {"measurement": "Ki", "setting": "[12]", "value": 1, "unit": "µM"}, {"measurement": "Ki", "setting": "[13]", "value": 1, "unit": "µM"}]}]}
